Compound activity deposited in PubChem by Broad Institute.
Shown are actives, neighbours in structure and some others; about 1.3% of the full set was active somewhere.
INS-1E GSIS act = GLuc luminescence reporter in INS-1E cells, primary screen for activators of glucose-dependent secretion of insulin; INS-1E GLuc reporter insulin secretion, 2-3 h; activation, % at 16.6 µM; actives 0.61% (n = 370,000); AID 743287;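 active = lowest replicate activation of at least 40%, so every replicate reaches that level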;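 also: 0% = median of neutral control wells and 100% = median of IBMX positive control wells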
SR-BI DiI-HDL act = enhances SR-BI lipid uptake from DiI-HDL | activation, % at 12.5 µM | actives 0.096% (n = 320,000) | AID 504775 | CHO ldlA[mSR-BI] cells, DiI-HDL uptake fluorescence, 3 h; 100 = double the neutral-control signal;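 active = mean replicate activation of at least 60% and every replicate at or above 60%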;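 also: 0% = median plate neutral-control signal and 100% = twice that signal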
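Test system: SR-BI-overexpressing, LDLR-lacking CHO cells; Medium: Ham's F12 with 0.5% BSA, HEPES 25 mM, pH 7.4; Schedule: 3 h, 37 °C; Technique: bottom-read fluorescence, 550/595 nm.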
Yeast UUG start-1 = alters start codon recognition fidelity in yeast. S. cerevisiae UUG-firefly luciferase reporter, luminescence/redox ratio. 350,000 tested, 0.13% active. activity score, % at 18.7 µM. AID 602363;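 active means replicate mean at a twofold rise or more, about +100% in these data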;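 further: firefly luciferase made from a UUG start codon reports start codon fidelity; reporter light over untreated wells divided by growth signal over untreated wells; some hits fall short of that in this replicate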
SR-BI DiI inh = blocks mouse SR-BI lipid uptake from DiI-HDL; inhibition, % at 12.5 µM; Q61009; actives 0.96% (n = 320,000); AID 488896; ldlA[mSR-BI] CHO cells, DiI-HDL uptake fluorescence, 3 h;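 active = mean replicate inhibition of at least 70% and a set share of replicates each scoring 70 or more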;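 also: 0% = median of neutral control wells and 100% = median of positive control wells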
Yeast UUG start-2 = alters UUG start codon use in yeast; shares compounds with Yeast UUG start-1; S. cerevisiae UUG-start firefly luciferase, luminescence, 4 h; 100% means double the DMSO signal; activation, % at 38 µM; 540 tested, under 10 active; AID 652061;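 active = signal increase whose fitted curve reaches an absolute level of 40 at a concentration under 10 µM; inactive = activity opposite to the expected increase, or the rest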
An asterisk follows results filed as active; i = inactive; · = no result given.

Fields: SR-BI DiI inh	INS-1E GSIS act	Yeast UUG start-1	SR-BI DiI-HDL act	Yeast UUG start-2
(1) CC(C)(C)Cc1c(-c2ccc(C#N)cc2)nc2ccc(Cl)cn12
  ·	15	165*	·	-6
(2) Cc1ccc(Cc2c(-c3ccc(C#N)cc3)nc3ccc(Cl)cn23)cc1
  ·	·	-36	·	·
(3) CC(C)NC[C@H]1[C@@H](c2ccc(C3=CCCC3)cc2)[C@@H](CO)N1C(=O)CC1CC1
  ·	-13	·	·	·
(4) N#CCSc1nnc(-c2sc3ccccc3c2Cl)o1
  -10	8	·	10	-1
(5) COC(=O)CSc1nnc(-c2sc3ccccc3c2Cl)o1
  -5	·	565*	5	-5
(6) COC(=O)CSc1nnc(-c2c[nH]c3ccccc23)o1
  11	12	-8	-11	·
(7) O=C(NC[C@@H]1[C@@H](c2ccccc2)[C@@H](CO)N1Cc1cccnc1)C1CCCC1
  ·	8	·	·	·
(8) COc1ccc(-c2noc(Cc3cccs3)n2)cc1
  10	·	active	-10	-4
(9) COc1ccc(-c2noc(Cc3ccccc3OC)n2)cc1
  28	·	0	-29	·
(10) CC(C)C[C@@H](CNCC(=O)[C@H](Cc1ccccc1)NC(=O)c1[nH]cnc1C(=O)N[C@@H](C)CN)NC(=O)c1nc[nH]c1C(=O)N[C@@H](C)C(=O)O
  -18	-6	130*	18	3
(11) CC(C)C[C@@H](CNCC(=O)[C@H](C)NC(=O)c1[nH]cnc1C(=O)N[C@@H](C)CN)NC(=O)c1nc[nH]c1C(=O)N[C@@H](CO)C(=O)O
  -37	9	-7	37	·
(12) CC(C)C[C@@H](CNCC(=O)[C@H](C)NC(=O)c1[nH]cnc1C(=O)N[C@@H](C)CN)NC(=O)c1nc[nH]c1C(=O)N[C@@H](C)C(=O)O
  -33	16	147*	33	1
(13) CCC(=O)N(C)C[C@H]1Oc2ncc(-c3ccc(C)cc3)cc2C(=O)N([C@@H](C)CO)C[C@H]1C
  ·	22	5	·	·
(14) CN(C)C1=NC[C@H](Cc2ccccc2)N1CCCC1CCCCC1
  3	-15	-16	-3	·
(15) CN(C)C1=NC[C@H](Cc2ccccc2)N1CCCC1CCCC1
  -24	·	151*	24	1
(16) COc1cccc(-c2cn(CC[C@@H]3CC[C@H](NC(=O)CC4CC4)[C@@H](CO)O3)nn2)c1
  ·	-9	155*	·	i
(17) COCc1cn(CC[C@H]2CC[C@H](NC(=O)Nc3c(C)noc3C)[C@H](CO)O2)nn1
  ·	1	194*	·	i
(18) O=C(Cc1ccccn1)N[C@H]1CC[C@@H](CCNS(=O)(=O)c2cccc(F)c2)O[C@H]1CO
  ·	-8	3	·	·
(19) O=S(=O)(N[C@H]1CC[C@@H](CCn2cc(-c3cccnc3)nn2)O[C@@H]1CO)c1ccc(Cl)cc1
  ·	-9	-5	·	·
(20) O=S(=O)(N[C@@H]1CC[C@H](CCn2cc(-c3cccnc3)nn2)O[C@@H]1CO)c1ccc(Cl)cc1
  ·	2	102*	·	i

Random excerpt: four compounds from above.
Fields: SR-BI DiI inh	INS-1E GSIS act	Yeast UUG start-1	SR-BI DiI-HDL act	Yeast UUG start-2
(9) COc1ccc(-c2noc(Cc3ccccc3OC)n2)cc1
  28	·	0	-29	·
(20) O=S(=O)(N[C@@H]1CC[C@H](CCn2cc(-c3cccnc3)nn2)O[C@@H]1CO)c1ccc(Cl)cc1
  ·	2	102*	·	i
(8) COc1ccc(-c2noc(Cc3cccs3)n2)cc1
  10	·	active	-10	-4
(2) Cc1ccc(Cc2c(-c3ccc(C#N)cc3)nc3ccc(Cl)cn23)cc1
  ·	·	-36	·	·

Further compounds:
Fields: SR-BI DiI inh	INS-1E GSIS act	Yeast UUG start-1	SR-BI DiI-HDL act	Yeast UUG start-2
(21) O=C(Cc1ccccn1)N[C@H]1CC[C@@H](CCNS(=O)(=O)c2cccc(F)c2)O[C@@H]1CO
  ·	9	243*	·	i
(22) Cc1ccc(S(=O)(=O)N(C)C[C@@H]2OCCCC[C@@H](C)Oc3ccc(NC(=O)Nc4c(C)noc4C)cc3C(=O)N([C@@H](C)CO)C[C@@H]2C)cc1
  ·	-4	-3	·	·
(23) CCCNC(=O)C[C@@H]1CC[C@@H]2[C@@H](COc3ccc(NC(=O)c4cscn4)cc3C(=O)N2C)O1
  ·	9	3	·	·
(24) C[C@@H]1CN([C@@H](C)CO)C(=O)c2cc(NC(=O)Nc3ccc(F)cc3)ccc2O[C@H]1CN(C)C(=O)Nc1ccc2c(c1)OCO2
  ·	2	·	·	·
(25) COc1ccc(NC(=O)N(C)C[C@H]2Oc3c(NC(=O)NC(C)C)cccc3C(=O)N([C@@H](C)CO)C[C@@H]2C)cc1
  ·	13	0	·	·
(26) O=C(Cc1ccccn1)NCC[C@@H]1CC[C@H](NS(=O)(=O)c2ccc(Cl)cc2)[C@H](CO)O1
  ·	5	103*	·	i
(27) O=C(NC1CCC1)[C@@H]1[C@@H](CO)[C@@H]2Cn3c(cccc3=O)[C@H]1N2Cc1cc(F)ccc1F
  ·	-3	·	·	·
(28) N#Cc1ccccc1OCc1cn(CC(=O)c2ccc(O)cc2)nn1
  5	-8	152*	-5	11
(29) COc1ccc(NC(=O)Nc2ccc3c(c2)CC(=O)N([C@@H](C)CO)C[C@@H](C)[C@@H](CN(C)S(=O)(=O)c2cn(C)cn2)O3)cc1
  ·	-7	4	·	·
(30) O=C(NC(=S)Nc1cccc(C(F)(F)F)c1)c1ccc2nonc2c1
  ·	·	139*	·	-8
(31) O=C(CNC(=O)c1cccc(F)c1)OCC(=O)N1CCN(C(=O)c2ccco2)CC1
  ·	13	213*	·	-2
(32) C[C@@H]1CN([C@@H](C)CO)C(=O)c2c(c3ccccc3n2C)-c2ccccc2CO[C@@H]1CN(C)Cc1ccccc1
  ·	-28	·	·	·
(33) CC(=O)Nc1ccc(S(=O)(=O)NCCC(=O)Nc2ccc(C)c(F)c2)cc1
  ·	-8	200*	·	-1
(34) CO[C@H]1CN(C)C(=O)c2ccc(NC(=O)Cc3ccccc3)cc2OC[C@H](C)N(CC2CC2)C[C@@H]1C
  ·	-5	·	·	·
(35) C[C@@H]1CN([C@@H](C)CO)C(=O)Cc2cc(NC(=O)Cc3ccccc3)ccc2O[C@H]1CN(C)S(=O)(=O)c1cccs1
  ·	-2	6	·	·
(36) Cc1ccc(-c2nn(-c3ccccc3)cc2/C=C2\SC(=S)N(CC(=O)O)C2=O)cc1
  ·	-17	527*	·	2
(37) CN(C)CCCN1C(=O)[C@@]2(Cc3ccccc31)c1ccccc1C(=O)N(Cc1ccccc1Cl)[C@H]2c1ccc(CO)cc1
  ·	·	202*	·	i
(38) COc1ccccc1CN1C(=O)c2ccccc2[C@@]2(Cc3ccccc3N(CCN3CCOCC3)C2=O)[C@@H]1c1ccc(CO)cc1
  ·	·	130*	·	i
